Bioassay records (PubChem)
PglD DTNB = PglD (C. jejuni) enzyme inhibition; purified PglD enzyme, DTNB colorimetric CoA detection; inhibition, % at 12.5 µM; actives 0.098% (n = 360,000); in the data active means inhibition above about 16%, passing the limit was not always enough
C2C12 statin = suppressors of simvastatin-induced myotoxicity in C2C12 myotubes. ATP luminescence, 48 h; scaled: DMSO 0, geranylgeraniol control 100. rescue of ATP level, % at 7.49 µM. AID 602340. actives 0.78% (n = 330,000);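 active means mean ATP rescue above about 67%, or every replicate alone reaching that limit, limit read from the data, passing the limit was not always enough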;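 further: myotubes were challenged with 10 µM simvastatin during compound exposure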
esBAF inh = blocks esBAF chromatin remodeling in mouse ES cells | Bmi1-luciferase knock-in reporter, 24 h; 100% = twice the neutral-well signal | AID 602393 | reporter increase, % at 12.5 µM | actives 2% (n = 350,000); in the data active means activation above about 40%;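 further: a rise in the Bmi1 reporter signal indicates esBAF inhibition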
UUG fidelity = yeast start codon fidelity modulation; AID 602363; activity score, % at 18.7 µM; S. cerevisiae UUG-firefly luciferase reporter, luminescence/redox ratio; 0.13% of 350,000 active;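 active means replicate mean at a twofold rise or more, about +100% in these data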;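 further: firefly luciferase made from a UUG start codon reports start codon fidelity; reporter light over untreated wells divided by growth signal over untreated wells; some hits fall short of that in this replicate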
PGC1a acetyl inh = modulators of PGC1a acetylation; AID 651687; actives 0.17% (n = 350,000); inhibition, % at 15.6 µM; U2OS PGC1a acetylation, AlphaScreen anti-acetyl-lysine; with virally co-expressed GCN5 acetyltransferase;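 active means every replicate shows inhibition of at least 40%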
E-selectin induc = induces E-selectin expression in human endothelial cells. P16581. HUVEC E-selectin immunofluorescence imaging; normalized: neutral wells 0, TNF-alpha wells 100. activation, % at 7.58 µM. actives 0.37% (n = 260,000). AID 686992;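 active means mean E-selectin-positive cell signal at least 10% of the positive control, reached in at least 60% of replicates, without over 20% cell loss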
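Material: HUVEC primary endothelial cells; Amount: 3,000 cells per well; Dosing: single concentration; Medium: EGM-2 growth medium on 0.1% gelatin-coated wells; Read-out basis: percent E-selectin-positive cells; Signal: immunofluorescence imaging; Control set: TNF-alpha, DMSO.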
Numbers stand for hits; i = inactive; nt = no result. A selection: hits, their analogues and other compounds. The true share with any hit is near 2.8%.

SMILES	PglD DTNB	C2C12 statin	esBAF inh	UUG fidelity	PGC1a acetyl inh	E-selectin induc
CCCNC(=O)N1CC2(CN(C(=O)c3ccncc3)C2)c2c([nH]c3cc(OC)ccc23)[C@H]1CO	nt	nt	nt	nt	i	i
CC(C)CCNC(=O)[C@H](Cc1ccccc1)N1Cc2ccccc2C1=O	i	i	i	i	i	76
O=C(NCc1ccco1)c1ccc2ccccc2c1	i	i	72	i	nt	nt
CCOc1ccc(CCNC(=O)c2ccc3nc(CC)c(CC)nc3c2)cc1	i	i	i	i	i	nt
O=C(NCc1ccco1)c1cc(-c2ccccc2)on1	i	i	105	i	i	nt
O=C(Nc1sc2c(c1C(=O)NCc1ccco1)CCCC2)c1ccc2c(c1)OCO2	i	i	46	i	i	nt
CCc1nc2ccc(C(=O)NCCc3ccco3)cc2nc1CC	i	i	53	i	i	nt
O=C(NCc1ccco1)c1cc(-c2ccc(F)cc2)on1	nt	i	i	nt	i	nt
COc1ccc(-c2cnc3c(c2)C(=O)N([C@H](C)CO)C[C@H](C)[C@H](CN(C)C(=O)NC2CCCC2)O3)cc1	i	i	i	i	i	i
CC(C)NC(=O)CN1C(=O)NC(CCc2ccccc2)C1=O (stereo not drawn)	i	114	i	i	i	nt
O=C(CN1C(=O)NC(CCc2ccccc2)C1=O)Nc1ccc(F)c(F)c1F (stereo not drawn)	i	i	i	i	i	nt
COc1ccc(S(=O)(=O)O/N=C2\CCCc3ccccc32)cc1	i	72	i	i	i	nt
CCC(=O)Nc1ccc2nc(C3CC3)n(Cc3ccc(C(C)(C)C)cc3)c(=O)c2c1	i	i	i	i	i	i
CC(=O)Nc1ccc2nc(C3CC3)n(Cc3ccc(Cl)cc3)c(=O)c2c1	nt	i	75	nt	nt	i
COc1ccc(Cn2c(C3CC3)nc3ccc(NC(=O)C4CC4)cc3c2=O)cc1	i	nt	67	i	i	i
COc1ccc(NC(=O)N(C)C[C@H]2Oc3ccc(NS(=O)(=O)c4ccc(F)cc4)cc3C(=O)N([C@@H](C)CO)C[C@H]2C)cc1	i	i	i	i	i	i
CCOC(=O)C1CCCN(C(=O)c2cc3c(-c4cccc(OC)c4)nn(C)c3s2)C1 (stereo not drawn)	i	96	i	i	i	nt
C[C@H]1CN([C@@H](C)CO)C(=O)c2cc(-c3cccc(F)c3)cnc2O[C@H]1CN(C)C	i	i	i	i	i	i
O=C(Cn1cccc1C(=O)c1ccccc1)NCc1ccc(Cl)cc1	nt	nt	nt	nt	i	i
CCCN1CCN(C(=O)Cn2cccc2C(=O)c2ccccc2)CC1	i	i	i	i	i	nt
O=C(c1ccccc1)c1cccn1CC(=O)N1CCCCCC1	nt	110	i	nt	i	nt
Cc1ccc(CNC(=O)Cn2cccc2C(=O)c2ccccc2)cc1	i	109	i	i	i	nt
COc1cc(/C=C/c2ccc3cccc(O)c3n2)c(Br)cc1O	i	i	40	i	nt	i
Nc1ccc2c(c1)Cc1c(F)cccc1-2	i	i	57	i	i	nt
O=C(C[C@H]1CC[C@H]2NC[C@H](O)COC[C@@H]2O1)Nc1ccc(-c2ccccc2)cc1	i	i	i	nt	i	i
SMILES	PglD DTNB	C2C12 statin	esBAF inh	UUG fidelity	PGC1a acetyl inh	E-selectin induc
Cc1ccc(C(=O)NN=Cc2ccc3c(c2)OCO3)cc1	i	i	48	i	i	i
C/C(=N/NC(=O)c1ccc2c(c1)OCO2)c1cccc(NC(=O)C(C)(C)C)c1	i	111	i	i	i	nt
Cc1cccc(C(=O)Nc2cccc(C(=O)N/N=C/c3ccc4c(c3)OCO4)c2)c1	i	i	60	i	nt	nt
O=C(N/N=C/c1ccc2c(c1)OCO2)c1cccc(NC(=O)c2ccccc2Cl)c1	i	i	i	i	nt	nt
Cc1cccc(C(=O)Nc2ccc(C(=O)N/N=C/c3ccc4c(c3)OCO4)cc2)c1	i	i	i	i	nt	nt
Cc1ccccc1C(=O)Nc1cccc(C(=O)N/N=C/c2ccc3c(c2)OCO3)c1	i	i	43	i	nt	i
C/C(=N/NC(=O)c1ccc2c(c1)OCO2)c1cccc([N+](=O)[O-])c1	i	i	i	i	nt	i
O=C(C1CC1)N1CC2(C1)[C@H](c1ccccc1)[C@@H](CO)N2CCC(F)(F)F	nt	nt	nt	nt	i	i
C[C@@H]1CN([C@H](C)CO)C(=O)c2cc(NC(=O)CCN3CCOCC3)ccc2O[C@H]1CN(C)Cc1ccc(C(F)(F)F)cc1	i	i	i	nt	i	i
C[C@H]1CN([C@@H](C)CO)C(=O)c2cc(NS(C)(=O)=O)ccc2O[C@H]1CN(C)C(=O)Nc1cccc2ccccc12	i	i	i	nt	i	i
O=C(N/N=C/c1ccccc1)c1cc(-c2ccc3c(c2)OCO3)n[nH]1	i	i	49	i	i	nt
O=C(C[C@@H]1C[C@@H]2c3cc(NC(=O)Nc4ccccc4F)ccc3O[C@@H]2[C@@H](CO)O1)NCc1ccc(Oc2ccccc2)cc1	i	i	i	i	84	i
COc1cccc(S(=O)(=O)N[C@H]2CC[C@H](CC(=O)NCc3ccc(F)cc3)O[C@@H]2CO)c1	i	i	i	i	55	i
COc1cccc(S(=O)(=O)Nc2ccc3c(c2)[C@H]2C[C@@H](CC(=O)O)O[C@H](CO)[C@H]2O3)c1	i	i	i	37	i	i
O=C(C[C@H]1CC[C@@H](NC(=O)c2ccc3c(c2)OCO3)[C@H](CO)O1)NCc1ccc(Oc2ccccc2)cc1	i	68	i	nt	i	i
COc1cccc(S(=O)(=O)N[C@@H]2CC[C@@H](CC(=O)NCc3ccc(F)cc3)O[C@@H]2CO)c1	i	i	i	i	i	i
CS(=O)(=O)Nc1ccc2c(c1)[C@H]1C[C@@H](CC(=O)NCC3CC3)O[C@H](CO)[C@H]1O2	i	i	i	nt	i	i
CCCNC(=O)C[C@@H]1C[C@H]2c3cc(NC(=O)CC4CC4)ccc3O[C@H]2[C@H](CO)O1	i	i	i	139	i	i
CCCNC(=O)C[C@@H]1C[C@H]2c3cc(NC(=O)CC4CC4)ccc3O[C@H]2[C@@H](CO)O1	i	i	i	i	i	i
O=C(C[C@H]1C[C@H]2c3cc(NC(=O)C4CCC4)ccc3O[C@H]2[C@H](CO)O1)NCc1ccc(-c2ccccc2)cc1	i	i	i	i	64	i
C[C@H]1CN([C@@H](C)CO)S(=O)(=O)c2ccc(C#CCN(C)C)cc2O[C@H]1CN(C)CC1CC1	i	i	i	i	i	i
COC(=O)C1=C(C)NC(=O)CC1c1cc(Br)ccc1F (stereo not drawn)	i	111	i	i	i	nt
COC(=O)C1=C(C)N(C)C(=O)NC1c1ccc(C)cc1 (stereo not drawn)	i	i	i	i	i	nt
CC1=C(C(=O)OC(C)(C)C)C(c2ccc3ccccc3c2)NC(=O)N1C (stereo not drawn)	i	i	i	i	66	i
C[C@H](CO)N1C[C@H](C)[C@H](CN(C)S(=O)(=O)c2ccccc2F)Oc2ncc(C#Cc3ccccc3F)cc2C1=O	i	i	i	i	i	i
